Values of other authors, collected in US5872104A, “Combinations and methods for reducing antimicrobial resistance” (Oridigm Corporation, priority 1994, dated 1999).
Where two headings read alike, the source gives them in different places.

Key:
[1] = test system: 28S rRNA, 18S rRNA and tRNA; conditions: NPA 10 μM; c^3 -NPA 10 μM; c^3 -Ari 100 μM; cited from earlier work
tumor = conditions: in vivo; cited from earlier work
[2] = test system: RNA methylation in human colon carcinoma; conditions: cited from earlier work
sixteen bacteria = conditions: cited from earlier work
[3] = test system: internal m^6 A of late SV40 mRNA; conditions: cited from earlier work
[4] = mouse, in vivo; cited from earlier work

Row | SMILES | methylation of 28S rRNA, 18S rRNA and tRNA [1] | antitumor activity (tumor) | RNA methylation [2] | RNA synthesis (transcription) [2] | bacteria sensitive out of sixteen (sixteen bacteria; agar plates) | growth sensitivity in broth culture (sixteen bacteria; broth culture, concentrations as high as 4 mM) | fold reduction of internal m^6 As ([3]; 2 mg/ml) | fold reduction of internal m^6 As ([3]; 5 mg/ml) | LD50 [4]
1 | Nc1ncnc2c1ncn2[C@@H]1C=C(CO)[C@@H](O)[C@H]1O [NPA, neplanocin A] | inhibit the methylation of 28S rRNA, 18S rRNA and tRNA | significant antitumor activity in vivo | inhibitor of RNA methylation | not of RNA synthesis (transcription) | only two were determined to be sensitive | None of the sixteen showed any growth sensitivity in broth culture |  |  | 
2 | NC1(C(=O)O)CCCC1 [cycloleucine, 1-aminocyclopentane-1-carboxylic acid] |  |  |  |  |  |  | 10 fold | 100 fold | 309 mg/kg
